Data from patent US9440982B2 (Eolas Therapeutics, Inc., priority 2012, dated 2016).

By UniProt entry, the sequences of proteins in these tests, tags left out.
UniProt O43614, whole entry: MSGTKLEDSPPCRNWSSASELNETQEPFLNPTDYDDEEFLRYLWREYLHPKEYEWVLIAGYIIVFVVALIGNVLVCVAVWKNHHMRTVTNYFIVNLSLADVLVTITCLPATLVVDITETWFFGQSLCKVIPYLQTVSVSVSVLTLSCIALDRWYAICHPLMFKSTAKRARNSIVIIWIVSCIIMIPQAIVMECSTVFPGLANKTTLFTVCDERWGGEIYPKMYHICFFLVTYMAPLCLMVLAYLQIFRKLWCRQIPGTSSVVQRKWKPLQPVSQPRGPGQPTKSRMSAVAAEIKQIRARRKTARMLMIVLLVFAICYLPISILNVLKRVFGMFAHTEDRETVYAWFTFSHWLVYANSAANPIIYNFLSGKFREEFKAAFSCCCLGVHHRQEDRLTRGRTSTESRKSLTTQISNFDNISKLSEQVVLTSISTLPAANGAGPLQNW

biological target: T1, OX2 (Homo sapiens, UniProt O43614); experiment: Orexin receptor cell-based functional assay, [Ca2+]i by FLIPR, CHO-OX2 cells; conditions: CHO-OX2 cells, [Ca2+]i by FLIPR, antagonist dose-range 0.1 nM-10 μM, EC90 of OXA; read-out: OX2
T1 construct: expressed in transfected cells; host or cells: CHO (CHO-OX2, kept under selection antibiotic)

| IC50 [µM] | Structure (SMILES) |
| --- | --- |
| > 5 | Cc1ccc(-n2nccn2)c(C(=O)N2CCC[C@@H](C)[C@H]2CNc2ncc(Cl)cn2)n1 [Example A177, ((2S,3R)-2-(((5-Chloropyrimidin-2-yl)amino)methyl)-3-methylpiperidin-1-yl)(6-methyl-3-(2H-1,2,3-triazol-2-yl)pyridin-2-yl)methanone] |
| > 5 | C[C@@H]1CCCN(C(=O)c2ccc(F)cc2-n2nccn2)[C@@H]1CNc1ccc(C(F)(F)F)cn1 [Example A250, (4-Fluoro-2-(2H-1,2,3-triazol-2-yl)phenyl)((2S,3R)-3-methyl-2-(((5-(trifluoromethyl)pyridin-2-yl)amino)methyl)piperidin-1-yl)methanone] |
| > 5 | Cc1ccc(-n2nccn2)c(C(=O)N2CCC[C@@H](C)[C@H]2CNc2ccc(C(F)(F)F)nn2)n1 [Example A176, ((2S,3R)-3-Methyl-2-(((6-(trifluoromethyl)pyridazin-3-yl)amino)methyl)piperidin-1-yl)(6-methyl-3-(2H-1,2,3-triazol-2-yl)pyridin-2-yl)methanone] |
| > 5 | Cc1ccc(-n2nccn2)c(C(=O)N2CCC[C@@H](C)[C@H]2CNc2ncc(F)cn2)c1 [Example A171, ((2S,3R)-2-(((5-Fluoropyrimidin-2-yl)amino)methyl)-3-methylpiperidin-1-yl)(5-methyl-2-(2H-1,2,3-triazol-2-yl)phenyl)methanone] |
| > 5 | Cc1ccc(-n2ncc(C)n2)c(C(=O)N2CCC[C@@H](C)[C@H]2CNc2ccc(Cl)cn2)c1 [Example A121, ((2S,3R)-2-(((5-Chloropyridin-2-yl)amino)methyl)-3-methylpiperidin-1-yl)(5-methyl-2-(4-methyl-2H-1,2,3-triazol-2-yl)phenyl)methanone] |
| > 5 | Cc1ccc(-n2nccn2)c(C(=O)N2CCC[C@@H](C)[C@H]2CNc2ncc(Cl)cc2F)c1 [Example A92, ((2S,3R)-2-(((5-Chloro-3-fluoropyridin-2-yl)amino)methyl)-3-methylpiperidin-1-yl)(5-methyl-2-(2H-1,2,3-triazol-2-yl)phenyl)methanone] |
| 0.389 | Cc1ccc(-n2nccn2)c(C(=O)N2CCC[C@@H](C)[C@H]2CNc2nc3cc(Cl)ccc3o2)n1 [Example A195, ((2S,3R)-2-(((5-Chlorobenzo[d]oxazol-2-yl)amino)methyl)-3-methylpiperidin-1-yl)(6-methyl-3-(2H-1,2,3-triazol-2-yl)pyridin-2-yl)methanone] |
| > 5 | COc1ccc(NC[C@@H]2[C@H](C)CCCN2C(=O)c2cc(C)ccc2-n2nccn2)nc1 [Example A126, ((2S,3R)-2-(((5-Methoxypyridin-2-yl)amino)methyl)-3-methylpiperidin-1-yl)(5-methyl-2-(2H-1,2,3-triazol-2-yl)phenyl)methanone] |
| > 4 | Cc1nc(C(=O)N2CCC[C@H](C)[C@@H]2CNc2ccc(C(F)(F)F)cn2)c(-c2ccc(F)cc2)s1 [Example A43, (5-(4-Fluorophenyl)-2-methylthiazol-4-yl)((2R,3S)-3-methyl-2-(((5-(trifluoromethyl)pyridin-2-yl)amino)methyl)piperidin-1-yl)methanone] |
| > 4 | Cc1nc(C(=O)N2CCC[C@@H](C)[C@H]2CNc2nc3cc(Cl)ccc3o2)c(-c2ccc(F)cc2)s1 [Example A13, ((2S,3R)-2-(((5-Chlorobenzo[d]oxazol-2-yl)amino)methyl)-3-methylpiperidin-1-yl)(5-(4-fluorophenyl)-2-methylthiazol-4-yl)methanone] |
| 0.13 | Cc1ccc(-n2nccn2)c(C(=O)N2CCC[C@H](C)[C@H]2CNc2ccc(C(F)(F)F)cn2)c1 (racemic) [Example A67, rac-trans-(3-Methyl-2-(((5-(trifluoromethyl)pyridin-2-yl)amino)methyl)piperidin-1-yl)(5-methyl-2-(2H-1,2,3-triazol-2-yl)phenyl)methanone] |
| > 5 | Cc1ccc(-c2cccnc2)c(C(=O)N2CCC[C@@H](C)[C@H]2CNc2ncc(Cl)cn2)n1 [Example A222, ((2S,3R)-2-(((5-Chloropyrimidin-2-yl)amino)methyl)-3-methylpiperidin-1-yl)(6-methyl-[3,3′-bipyridin]-2-yl)methanone] |
| 2.6 | Cc1cccc(C(=O)N2CCC[C@@H](C)[C@H]2CNc2ncc(C(F)(F)F)cn2)c1-n1nccn1 [Example A267, ((2S,3R)-3-Methyl-2-(((5-(trifluoromethyl)pyrimidin-2-yl)amino)methyl)piperidin-1-yl)(3-methyl-2-(2H-1,2,3-triazol-2-yl)phenyl)methanone] |
| > 5 | C[C@@H]1CCCN(C(=O)c2cc(F)ccc2-c2ncccn2)[C@@H]1CNc1ccc(C(F)(F)F)cn1 [Example A228, (5-Fluoro-2-(pyrimidin-2-yl)phenyl)((2S,3R)-3-methyl-2-(((5-(trifluoromethyl)pyridin-2-yl)amino)methyl)piperidin-1-yl)methanone] |
| > 4 | Cc1ccc(-c2cnn(C)c2)c(C(=O)N2CCC[C@@H](C)[C@H]2CNc2nc3ccccc3o2)c1 [Example A2, ((2S,3R)-2-((Benzo[d]oxazol-2-ylamino)methyl)-3-methylpiperidin-1-yl)(5-methyl-2-(1-methyl-1H-pyrazol-4-yl)phenyl)methanone] |
| > 5 | Cc1ccc(-c2ncccn2)c(C(=O)N2CCC[C@@H](C)[C@H]2CNc2nnc(C(F)(F)F)s2)n1 [Example A187, ((2S,3R)-3-Methyl-2-(((5-(trifluoromethyl)-1,3,4-thiadiazol-2-yl)amino)methyl)piperidin-1-yl)(6-methyl-3-(pyrimidin-2-yl)pyridin-2-yl)methanone] |
| > 5 | Cc1ccc(-c2ccc(C)nc2)c(C(=O)N2CCC[C@@H](C)[C@H]2CNc2nc3cc(Cl)ccc3o2)c1 [Example A38, ((2S,3R)-2-(((5-Chlorobenzo[d]oxazol-2-yl)amino)methyl)-3-methylpiperidin-1-yl)(5-methyl-2-(6-methylpyridin-3-yl)phenyl)methanone] |
| > 4 | COc1ncc(-c2ccc(C)cc2C(=O)N2CCC[C@@H](C)[C@H]2CNc2ccc(C(F)(F)F)cn2)cn1 [Example A4, (2-(2-Methoxypyrimidin-5-yl)-5-methylphenyl)((2S,3R)-3-methyl-2-(((5-(trifluoromethyl)pyridin-2-yl)amino)methyl)piperidin-1-yl)methanone] |
| 0.35 | Cc1ccc(-c2ncccn2)c(C(=O)N2CCC[C@@H](C)[C@H]2CNc2nc3cc(Cl)ccc3o2)c1 [Example A205, ((2S,3R)-2-(((5-Chlorobenzo[d]oxazol-2-yl)amino)methyl)-3-methylpiperidin-1-yl)(5-methyl-2-(pyrimidin-2-yl)phenyl)methanone] |
| > 5 | Cc1ccc(-n2nccn2)c(C(=O)N2CCC(F)(F)C[C@H]2CNc2ccc(Cl)cn2)c1 [Example A210, (S)-(2-(((5-Chloropyridin-2-yl)amino)methyl)-4,4-difluoropiperidin-1-yl)(5-methyl-2-(2H-1,2,3-triazol-2-yl)phenyl)methanone] |
| > 5 | Cc1ccc(-n2nccn2)c(C(=O)N2CCC[C@@H](C)[C@H]2CNc2ncc(C#N)cn2)c1 [Example A134, 2-((((2S,3R)-3-Methyl-1-(5-methyl-2-(2H-1,2,3-triazol-2-yl)benzoyl)piperidin-2-yl)methyl)amino)pyrimidine-5-carbonitrile] |

same assay, conditions: Table 2; CHO-OX2 cells, EC90 of OXA; read-out: IC50 Bioactivity OX2

| IC50 [µM] | Structure (SMILES) |
| --- | --- |
| 0.16 | NC1CCC(CNC(=O)c2cccc3cccnc23)N(C(=O)c2ccccc2-c2ccccc2)C1 (racemic) [Example 39, N-((5-Amino-1-(biphenylcarbonyl)piperidin-2-yl)methyl)quinoline-8-carboxamide] |
| > 10 | Cc1nc(C(=O)N2CCC[C@@H](C)[C@H]2CNc2ncccc2C(F)(F)F)c(-c2ccc(F)cc2)s1 (racemic) [Example 22, rac-cis-(5-(4-Fluorophenyl)-2-methylthiazol-4-yl)(3-methyl-2-(((3-(trifluoromethyl)pyridin-2-yl)amino)methyl)piperidin-1-yl)methanone] |
| > 10 | Cc1nc(C(=O)N2CCC[C@@H](C)[C@H]2CNc2ccnc(Cl)n2)c(-c2ccc(F)cc2)s1 (racemic) [Example 19, rac-cis-(2-(((2-Chloropyrimidin-4-yl)amino)methyl)-3-methylpiperidin-1-yl)(5-(4-fluorophenyl)-2-methylthiazol-4-yl)methanone] |
| 1.5 | O=C(NCC1CCC(NCc2ccccc2)CN1C(=O)c1ccccc1-c1ccccc1)c1cccc2cccnc12 (racemic) [Example 40, N-((5-(Benzylamino)-1-(biphenylcarbonyl)piperidin-2-yl)methyl)quinoline-8-carboxamide] |
| > 5 | Cc1nc(C(=O)N2CCC[C@@H](C)[C@H]2CNc2cccc3cccnc23)c(-c2ccc(F)cc2)s1 (racemic) [Example 74, rac-cis-(3-Methyl-2-((quinolin-8-ylamino)methyl)piperidin-1-yl)(5-(4-fluorophenyl)-2-methylthiazol-4-yl)methanone] |
| 4.9 | Cc1nc(C(=O)N2CCC[C@@H](C)[C@H]2CNc2ccc(C(F)(F)F)cn2)c(-c2ccc(F)cc2)s1 (racemic) [Example 11, rac-cis-(5-(4-Fluorophenyl)-2-methylthiazol-4-yl)(3-methyl-2-(((5-(trifluoromethyl)pyridin-2-yl)amino)methyl)piperidin-1-yl)methanone] |
| > 10 | Cc1nc(-c2ccccc2)c(C(=O)N2CC[C@@H](O)C[C@H]2CNC(=O)c2cccc3cccnc23)s1 [Example 134, N-(((2S,4R)-4-Hydroxy-1-(2-methyl-4-phenylthiazole-5-carbonyl)piperidin-2-yl)methyl)quinoline-8-carboxamide] |
| 1.4 | Cc1nc(-c2ccccc2)c(C(=O)N2CCC(F)(F)[C@H]2CNC(=O)c2cccc3cccnc23)s1 [Example 133, (R)—N-((3,3-Difluoro-1-(2-methyl-4-phenylthiazole-5-carbonyl)pyrrolidin-2-yl)methyl)quinoline-8-carboxamide] |

same assay, conditions: Table 6; racemate vs enantiomers; read-out: OX2 IC50

| IC50 [µM] | Structure (SMILES) |
| --- | --- |
| 4.9 | Cc1nc(C(=O)N2CCC[C@@H](C)[C@H]2CNc2ccc(C(F)(F)F)cn2)c(-c2ccc(F)cc2)s1 (racemic) [Example 11, rac-cis-(5-(4-Fluorophenyl)-2-methylthiazol-4-yl)(3-methyl-2-(((5-(trifluoromethyl)pyridin-2-yl)amino)methyl)piperidin-1-yl)methanone] |
| 4 | Cc1nc(C(=O)N2CCC[C@H](C)[C@@H]2CNc2ccc(C(F)(F)F)cn2)c(-c2ccc(F)cc2)s1 [Example A43, (5-(4-Fluorophenyl)-2-methylthiazol-4-yl)((2R,3S)-3-methyl-2-(((5-(trifluoromethyl)pyridin-2-yl)amino)methyl)piperidin-1-yl)methanone] |
